According to PMC8967716, “Inhibition of calcium-triggered secretion by hydrocarbon-stapled peptides” (Nature, 2022):
Positions of bridges follow the written chain, without caps; N, C: chain ends. Non-standard residues stand in square brackets, D forms with d. Residues, ends and D or L forms follow the SMILES beside them. S5 = C=CCCC[C@](C)(N)C(=O)O

Experiment: Size exclusion chromatography of peptides
Format: physicochemical
Conditions: Superdex 75, buffer V (20 mM HEPES pH 7.4, 90 mM NaCl), 0.2 micrometer filtered
Description: Extended Data Fig. 3 Related to Figure 2. Characterization of the oligomeric state of SP9. a, Size exclusion chromatography (SEC) profiles of peptides. […] The dashed line indicates the border of the void volume at ~8 ml. […] Scale bar, 410 μm. c, Representative time traces showing single-molecule stepwise photobleaching events of SP9-Cy3. Black lines correspond to the fluorescence intensity of SP9-Cy3 and red lines correspond to the idealized trajectory obtained by Hidden Markov Model analysis (HMM) (Methods). d, Distribution of multiple SP9-Cy3 molecules in (diffraction limited) fluorescent spots at specified concentrations. Fluorescent spots were automatically selected by smCamera. The number of SP9-Cy3 molecules per fluorescent spot was determined from the observed fluorescence intensity time traces by HMM and verified by manual inspection (Methods). Bar graphs were calculated from 167, 675, 937, and 520 selected traces at concentrations of 0.5, 1, 10, and 100 nM SP9-Cy3, respectively. Source data

CC[C@H](C)[C@H](NC(=O)[C@]1(C)CCCC=CCCC[C@](C)(NC(=O)[C@H](CCC(=O)O)NC(=O)[C@H](CCC(=O)O)NC(C)=O)C(=O)N[C@@H](CCCCN)C(=O)N[C@@H](CC(=O)O)C(=O)N[C@@H](C)C(=O)N1)C(=O)N[C@@H](CCCNC(=N)N)C(=O)N[C@@]1(C)CCCC=CCCC[C@@](C)(C(=O)N[C@@H](CC(=O)O)C(=O)N[C@@H](CCC(=O)O)C(=O)N[C@@H](CCC(N)=O)C(=O)N[C@@H](CS)C(N)=O)NC(=O)[C@H](CCSC)NC(=O)[C@H](C(C)C)NC(=O)[C@H](CC(C)C)NC1=O [SP9] (Ac-EE[S5]KDA[S5]IR[S5]LVM[S5]DEQC-NH2; staple 3-7, 10-14)
aggregation by size-exclusion chromatography: does not aggregate
